From US11591319B2, “Small molecule inducers of autophagy” (Board of Regents, The University of Texas System, priority 2018, dated 2023)

Protein sequences, listed by entry. Tags and fused reporters are not part of them. Residues count along the entry.
UniProt P10415, 1-218: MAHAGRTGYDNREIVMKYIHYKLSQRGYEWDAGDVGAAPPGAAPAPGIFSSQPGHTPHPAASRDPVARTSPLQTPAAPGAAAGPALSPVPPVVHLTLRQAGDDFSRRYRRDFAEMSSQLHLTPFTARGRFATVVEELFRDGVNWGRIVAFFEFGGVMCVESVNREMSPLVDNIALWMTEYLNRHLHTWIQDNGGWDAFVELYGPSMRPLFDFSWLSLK

Target: Beclin 1/Bcl-2 interaction (Homo sapiens (Human), UniProt P10415)
Assay: Beclin 1/Bcl-2 AlphaLISA assay (dose-response)
Assay type: binding
From the text: We also developed a high-throughput Beclin 1/Bcl-2 AlphaLISA assay to directly measure the in vitro interaction between Beclin 1 and Bcl-2. AlphaLISA is a bead-based proximity assay that is capable of measuring protein-protein interaction in homogeneous solution.^41 Oxygen singlet molecules are generated by Alpha donor beads upon irradiation at 680 nm and travel to acceptor beads in proximity. […] Thus, a measurable Alpha luminescence signal requires chemical energy transfer between the donor and acceptor beads, and a pair of interacting molecules immobilized on the beads stabilizes bead association to produce measurable Alpha signals.
We used purified recombinant Beclin 1 and Bcl-2 proteins for AlphaLISA, which were optimized for enhanced solubility and expression. Human Beclin 1 was expressed as a fusion protein with StrepII-SUMO at the N-terminus, and three residues on the aromatic finger of Beclin 1 were mutated (F359D/F360D/W361D) to improve solubility and protein stability.^42 These mutations are in the BARA domain, which is far from the BH3 motif recognized by Bcl-2. […] The purpose of a normalization control is to eliminate inner filter (false-positive) hits that reduce luminescence signal by interfering with the AlphaLISA assay in ways that are unrelated to the Beclin 1/Bcl-2 interaction. […]

SMILES	IC50 [µM]
CC(=O)c1ccc(C(=O)N2N=C(c3ccc(NC(=O)OC(C)(C)C)cc3)CC2c2ccccc2)cc1 (centres unmarked) [lqr-9-136]	2.5
Cc1cccc(C(=O)N2N=C(c3ccc(NS(C)(=O)=O)cc3)CC2c2ccco2)c1 (centres unmarked) [lqr-8-182]	18.2
